Results: US11324749B2, “Combination therapy for treatment of hematological diseases” (Incyte Corporation, priority 2018, dated 2022)

Biological target: human JAK1 (a.a. 837-1142) (Homo sapiens, UniProt P23458)
Assay: In vitro JAK kinase assay (HTRF), JAK1
Assay type: biochemical
Details: 1 mM ATP

- IC50: < 10 nM
Structure (SMILES): CN(C)Cc1cc(F)cc(OC2CCN(CC(CC#N)n3cc(-c4ncnc5[nH]ccc45)cn3)CC2)c1 (single isomer, unassigned) [Compound 14, 4-(4-{3-[(dimethylamino)methyl]-5-fluorophenoxy}piperidin-1-yl)-3-[4-(7H-pyrrolo[2,3-d]pyrimidin-4-yl)-1H-pyrazol-1-yl]butanenitrile]
